Literature values in publication PMC7828495, “Synthesis, Stability, and Antidiabetic Activity Evaluation of (−)-Epigallocatechin Gallate (EGCG) Palmitate Derived from Natural Tea Polyphenols” (Molecules, 2021).

Test system: Mouse
Settings: in vivo; cited from earlier work

## CN(C)c1ccncc1 [4-dimethylaminopyridine (DMAP), 4-dimethylaminopyridine]
  LD50: LD50 250 mg/kg, medium toxicity
